Reference: patent publication US11597746B2

By UniProt entry, the sequences of proteins in these tests, tags left out. Residues count along the entry.
UniProt Q86WV6, 139-379 H232R limits assumed: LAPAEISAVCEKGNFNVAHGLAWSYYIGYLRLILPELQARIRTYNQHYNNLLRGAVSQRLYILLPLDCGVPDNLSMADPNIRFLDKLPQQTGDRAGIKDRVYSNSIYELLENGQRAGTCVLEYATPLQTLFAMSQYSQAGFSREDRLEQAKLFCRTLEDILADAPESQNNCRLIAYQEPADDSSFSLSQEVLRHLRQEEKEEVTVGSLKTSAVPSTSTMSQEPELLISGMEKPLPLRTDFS

Legend:
human STING = human STING (Homo sapiens (Human), UniProt Q86WV6, H232R); assay: STING SPA binding assay; settings: read-out: hSTING SPA IC50; displacement of [3H]-2′3′-cGAMP from biotinylated recombinant STING (residues 139-379, H232R); tested form: Na salt
[1] = test system: human STING pathway in THP1-ISG cells; assay: STING human cell reporter assay; format: cell-based; settings: read-out: human cell reporter EC50, IRF-inducible SEAP reporter, 24 h, tested form: Na salt

| IC50 (human STING) | EC50 [1] | SMILES |
| --- | --- | --- |
| > 100 µM | > 100 µM | Nc1ncnc2c1ncn2[C@@H]1O[C@@H]2CNS(=O)(=O)O[C@H]3C[C@H](n4cc(F)c5c(=O)[nH]cnc54)O[C@@H]3COP(=O)(O)O[C@H]2[C@H]1F |
| 3.79 µM | 0.32 µM | Nc1ncnc2c1ncn2[C@@H]1O[C@@H]2CNS(=O)(=O)O[C@H]3[C@@H](F)[C@H](n4cnc5c(=O)[nH]cnc54)O[C@@H]3COP(=O)(O)O[C@H]2[C@H]1F |
| 33.4 µM | – | Nc1nc2c(ncn2[C@@H]2C[C@@H]3COP(=O)(O)O[C@H]4[C@@H](F)[C@H](n5cnc6c(N)ncnc65)O[C@@H]4CNS(=O)(=O)O[C@H]3[C@H]2O)c(=O)[nH]1 |
| > 100 µM | > 100 µM | COc1ccc(CO[C@@H]2[C@@H]3OS(=O)(=O)NC[C@H]4O[C@@H](n5cnc6c(N)ncnc65)[C@H](F)[C@@H]4OP(=O)(S)OC[C@H]3O[C@H]2n2cnc3c(N)ncnc32)cc1 (single isomer, unassigned) |
| > 100 µM | > 100 µM | Nc1ncnc2c1ncn2[C@@H]1O[C@@H]2CNS(=O)(=O)O[C@H]3C[C@H](n4nnc5c(N)ncnc54)O[C@@H]3COP(=O)(O)O[C@H]2[C@H]1F |
| 5.44 µM | 0.38 µM | Nc1ncnc2c1ncn2[C@@H]1O[C@@H]2CNS(=O)(=O)O[C@H]3[C@H]4OC[C@]3(COP(=O)(O)O[C@H]2[C@H]1F)O[C@H]4n1cnc2c(N)ncnc21 |
| 33.7 µM | 0.15 µM | Nc1nc2c(nnn2[C@H]2C[C@@H]3OS(=O)(=O)NC[C@H]4O[C@@H](n5cnc6c(N)ncnc65)[C@H](F)[C@@H]4OP(=O)(O)OC[C@H]3O2)c(=O)[nH]1 |
| – | 2.28 µM | Nc1nc2c(ncn2[C@H]2C[C@@H]3OS(=O)(=O)NC[C@H]4O[C@@H](n5cnc6c(N)ncnc65)[C@H](F)[C@@H]4OP(=O)(O)OC[C@H]3O2)c(=O)[nH]1 |
